Data reported in PubChem BioAssay AID493035 (The Scripps Research Institute Molecular Screening Center, 2011).
The list shows a part of the results, in another mix than the full data. Activity calls are given as the source filed them.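 How the source made its calls: active means inhibition above the mean of all tested compounds plus 3 SD (cut at about 49% in these data); inactive means the rest.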

Sequences of proteins named here, by UniProt entry; tags and fusion partners are left off. A change or cut given only in a name is not applied to a line headed by its entry.
UniProt Q00G26: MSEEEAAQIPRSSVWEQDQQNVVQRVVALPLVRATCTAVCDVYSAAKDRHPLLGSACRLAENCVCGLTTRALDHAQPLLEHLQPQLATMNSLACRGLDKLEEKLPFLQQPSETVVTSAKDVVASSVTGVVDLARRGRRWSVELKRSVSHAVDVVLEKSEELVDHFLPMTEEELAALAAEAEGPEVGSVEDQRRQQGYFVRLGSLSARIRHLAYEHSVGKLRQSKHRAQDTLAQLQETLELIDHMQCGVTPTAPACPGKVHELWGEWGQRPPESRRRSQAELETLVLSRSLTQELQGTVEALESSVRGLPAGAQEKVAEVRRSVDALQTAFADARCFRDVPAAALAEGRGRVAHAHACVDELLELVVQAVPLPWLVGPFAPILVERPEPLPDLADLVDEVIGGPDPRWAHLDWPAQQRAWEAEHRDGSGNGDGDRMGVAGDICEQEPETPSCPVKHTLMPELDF
UniProt Q8WTS1: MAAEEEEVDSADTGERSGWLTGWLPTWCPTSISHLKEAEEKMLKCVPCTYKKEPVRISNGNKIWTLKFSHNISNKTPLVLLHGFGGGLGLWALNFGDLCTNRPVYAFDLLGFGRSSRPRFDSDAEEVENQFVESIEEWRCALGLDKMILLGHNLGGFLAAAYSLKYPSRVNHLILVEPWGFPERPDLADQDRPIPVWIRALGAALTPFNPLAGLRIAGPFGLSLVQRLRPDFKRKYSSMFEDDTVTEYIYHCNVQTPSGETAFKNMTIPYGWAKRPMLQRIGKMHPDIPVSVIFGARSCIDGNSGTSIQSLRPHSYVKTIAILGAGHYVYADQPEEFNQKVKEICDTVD

These compounds were tested against Perilipin-5 (Homo sapiens) + 1-acylglycerol-3-phosphate O-acyltransferase ABHD5 (Homo sapiens) (UniProt Q00G26+Q8WTS1) (assay: blockers of ABHD5 binding to perilipin-5 – cell lysate, split luciferase complementation, luminescence, NIH validation set, pilot screen (AID 493035;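 further: 0% = DMSO only wells while the 100% control is not stated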)). Details: split G. princeps luciferase complementation, lysates, 4 h, at 7.9 µM, hits give high values.

Question: How did the inhibition turn out when `CN(C(=O)Cc1ccc(Cl)c(Cl)c1)[C@@H]1CCCC[C@H]1N1CCCC1` was run?
Answer: inactive: -10.9%
